Results published in publication PMC7180830, “Scaffold Hopping in Discovery of HIV-1 Non-Nucleoside Reverse Transcriptase Inhibitors: From CH(CN)-DABOs to CH(CN)-DAPYs” (Molecules, 2020).

Molecular target: T1, WT HIV-1 RT (Human immunodeficiency virus type 1 group M subtype B, UniProt P03366)
T1 construct: Recombinant wild type p66/p51 HIV-1 RT; made in house
Test: Reverse transcriptase assay (EnzCheck kit, PicoGreen)
Format: biochemical
Settings: recombinant wild type p66/p51 HIV-1 RT

Cc1cc(C#N)cc(C)c1Oc1nc(Nc2ccc(C#N)cc2)nc(N)c1Br [Etravirine, etravirine, reference compound]
IC50: 10 ± 9 nM
